{
  "source": "patent US5994357A",
  "about": "“Method of treatment for interstitial cystitis” (priority 1994, dated 1999)",
  "system": "Rat Bladder Mast Cells",
  "test": "ID20 for histamine release, inhibition of mast cell secretion by H-1 receptor antagonists in vitro (Table 5)",
  "format": "cell-based",
  "settings": "read-out: ID20 for Histamine Release from Rat Bladder Mast Cells",
  "excerpt": "\"Inhibitor of neurohormonal activation of mast cell secretion\" refers to any substance or group of substances, devoid of any psychotropic effects which prevent the stimulation of mast cell secretion by hormones or molecules produced by nervous tissue. Whether or not a pharmacologically active substance is an inhibitor of neurohormonal activation of mast cell secretion can be determined by using the following procedure: Mast cells purified from peritoneal cavities of rats and stimulated by a neuropeptide, such as somatostatin (Theoharides, T. C. and Douglas, W. W. Endocrinology 102:1637-1640, 1978), or rat brain slices stimulated by substance P in special perfusion chambers (Dimitriadou, V., Buzzi, M. G., Moskowitz, M. A. and Theoharides, T. C. Neuroscience 44:27-39, 1991) or rat bladder mast cells stimulated by carbachol in special perfusion chambers (Theoharides, T. C. and Sant, G. R. Seminars Urology […], 1991) will first be […] with concentration of the agents to be tested ranging from 0.1 μmol/L-to-100 μmol/L of solution for varying amounts of time at 37° C. to determine their ability to inhibit subsequent mast cell secretion as described above. […]",
  "data": [
    {"compound": "CN1CCC(=C2c3ccccc3CC(=O)c3sccc32)CC1", "note": "[Ketotifen]", "values": [
      {"measurement": "IC20", "value": 10, "unit": "µM"}
    ]}
  ]
}
